“Also recorded” adds a separate entry of the source.
Tested on: p38 MAPK
Experiment: phospho-p38 MAPK (p-p38) level in human HSCs during ex vivo culture, flow cytometry
Format: cell-based
Settings: ex vivo cultures of human MPB CD34+ cells, LV or RV transduced, with vs without inhibitor

With Cc1ccc(-n2nc(C(C)(C)C)cc2NC(=O)Nc2ccc(OCCN3CCOCC3)c3ccccc23)cc1 [BIRB-796, 1-[5-tert-butyl-2-(4-methylphenyl)pyrazol-3-yl]-3-[4-(2-morpholin-4-ylethoxy)naphthalen-1-yl]urea] the “p-p38 in hHSCs” value was “decreased; also recorded: significantly decreases” and the “p-p38 in hHSCs” value (listed as p38i) was “significantly lower”.
